Source: patent publication US12202843B2, “Muscarinic receptor agonists” (Nxera Pharma UK Limited, priority 2014, dated 2025)

Protein sequences, listed by entry. Tags and fused reporters are not part of them.
UniProt P08173, whole entry: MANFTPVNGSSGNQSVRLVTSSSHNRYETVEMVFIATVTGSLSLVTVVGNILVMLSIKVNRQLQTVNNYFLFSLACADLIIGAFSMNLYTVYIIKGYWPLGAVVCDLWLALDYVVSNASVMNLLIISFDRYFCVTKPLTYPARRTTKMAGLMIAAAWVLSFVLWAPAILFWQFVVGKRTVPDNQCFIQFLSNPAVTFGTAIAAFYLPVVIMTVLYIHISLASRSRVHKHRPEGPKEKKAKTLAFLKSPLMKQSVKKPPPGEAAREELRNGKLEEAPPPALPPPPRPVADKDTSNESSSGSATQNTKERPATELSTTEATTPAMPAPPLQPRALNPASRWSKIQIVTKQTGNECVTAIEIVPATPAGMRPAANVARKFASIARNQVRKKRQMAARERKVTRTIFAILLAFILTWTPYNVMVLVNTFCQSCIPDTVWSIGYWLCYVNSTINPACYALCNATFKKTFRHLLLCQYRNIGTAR
UniProt P08172, whole entry: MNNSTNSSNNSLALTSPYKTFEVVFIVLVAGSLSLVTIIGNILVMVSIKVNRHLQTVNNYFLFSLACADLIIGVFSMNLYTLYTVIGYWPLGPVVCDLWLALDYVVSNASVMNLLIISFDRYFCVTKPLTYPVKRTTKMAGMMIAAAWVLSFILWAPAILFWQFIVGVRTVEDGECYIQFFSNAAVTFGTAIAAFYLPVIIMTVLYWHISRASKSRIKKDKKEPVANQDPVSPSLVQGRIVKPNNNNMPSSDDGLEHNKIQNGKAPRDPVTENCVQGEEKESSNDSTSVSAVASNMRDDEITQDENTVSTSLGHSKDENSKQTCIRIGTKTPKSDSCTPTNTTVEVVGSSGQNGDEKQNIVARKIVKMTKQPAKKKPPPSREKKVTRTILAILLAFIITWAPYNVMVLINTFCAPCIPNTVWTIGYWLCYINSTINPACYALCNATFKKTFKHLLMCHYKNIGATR
UniProt P11229, whole entry: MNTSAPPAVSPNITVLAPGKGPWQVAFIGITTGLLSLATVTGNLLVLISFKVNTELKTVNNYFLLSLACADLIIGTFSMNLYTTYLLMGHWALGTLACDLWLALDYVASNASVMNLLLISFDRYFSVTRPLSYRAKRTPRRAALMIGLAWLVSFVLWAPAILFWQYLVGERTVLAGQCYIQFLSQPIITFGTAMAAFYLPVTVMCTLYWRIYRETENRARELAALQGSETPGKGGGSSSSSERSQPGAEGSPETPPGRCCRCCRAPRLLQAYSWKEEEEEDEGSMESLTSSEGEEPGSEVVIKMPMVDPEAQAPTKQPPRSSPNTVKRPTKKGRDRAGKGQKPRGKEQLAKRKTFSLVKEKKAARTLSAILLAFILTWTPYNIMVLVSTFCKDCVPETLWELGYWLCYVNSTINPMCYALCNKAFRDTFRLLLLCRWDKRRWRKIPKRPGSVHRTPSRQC
UniProt P20309, whole entry: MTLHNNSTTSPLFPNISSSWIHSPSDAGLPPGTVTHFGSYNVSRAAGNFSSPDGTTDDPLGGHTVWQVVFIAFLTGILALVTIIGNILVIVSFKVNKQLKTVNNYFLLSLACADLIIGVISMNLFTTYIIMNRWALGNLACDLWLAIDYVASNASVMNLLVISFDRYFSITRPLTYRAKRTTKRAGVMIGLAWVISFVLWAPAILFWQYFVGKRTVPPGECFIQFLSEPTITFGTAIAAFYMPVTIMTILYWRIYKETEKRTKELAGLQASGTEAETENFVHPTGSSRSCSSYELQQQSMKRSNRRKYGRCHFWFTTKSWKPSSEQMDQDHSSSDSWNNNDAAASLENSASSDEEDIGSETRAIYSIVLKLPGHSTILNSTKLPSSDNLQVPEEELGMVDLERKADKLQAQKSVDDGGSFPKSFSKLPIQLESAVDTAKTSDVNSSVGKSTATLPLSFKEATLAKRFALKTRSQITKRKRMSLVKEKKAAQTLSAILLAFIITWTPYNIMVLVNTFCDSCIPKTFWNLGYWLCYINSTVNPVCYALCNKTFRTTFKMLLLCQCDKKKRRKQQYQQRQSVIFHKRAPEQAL

What was measured:
[1] = biological target: human muscarinic M4 receptor (Homo sapiens, UniProt P08173); experiment: Alphascreen Surefire phospho-ERK1/2 functional assay, M4; format: cell-based
[2] = biological target: human muscarinic M2 receptor (Homo sapiens, UniProt P08172); experiment: Alphascreen Surefire phospho-ERK1/2 functional assay, M2; format: cell-based
[3] = biological target: human muscarinic M1 receptor (Homo sapiens, UniProt P11229); experiment: Alphascreen Surefire phospho-ERK1/2 functional assay, M1
[4] = biological target: human muscarinic M3 receptor (Homo sapiens, UniProt P20309); experiment: Alphascreen Surefire phospho-ERK1/2 functional assay, M3; format: cell-based

What does the source list for CCOC(=O)N1CC2CC(C1)C(N1CCC3(CC1)CNC(=O)O3)C2 (single isomer, unassigned)?
pEC50 M4 ([1]; CHO cells stably expressing human M4): 4.7; % Emax cf. ACh, M4 ([1]; CHO cells stably expressing human M4, relative to ACh): 5%; pEC50 M2 ([2]; CHO cells stably expressing human M2): 4.7; % Emax cf. ACh, M2 ([2]; CHO cells stably expressing human M2, relative to ACh): 1%; pEC50 M1 ([3]; CHO cells stably expressing human M1): 7.4; % Emax cf. ACh, M1 ([3]; CHO cells stably expressing human M1, relative to ACh): 46%; pEC50 M3 ([4]; CHO cells stably expressing human M3): 4.7; % Emax cf. ACh, M3 ([4]; CHO cells stably expressing human M3, relative to ACh): 2%
